US5994563A, “Arylmethylphosphonic acid derivatives useful in treating bone wasting diseases” (Ortho Pharmaceutical Corporation, priority 1999, dated 1999)

Amino acid sequences for entries named in this document (tags omitted). Residues count along the entry.
UniProt P08575, 26-1306 limits assumed: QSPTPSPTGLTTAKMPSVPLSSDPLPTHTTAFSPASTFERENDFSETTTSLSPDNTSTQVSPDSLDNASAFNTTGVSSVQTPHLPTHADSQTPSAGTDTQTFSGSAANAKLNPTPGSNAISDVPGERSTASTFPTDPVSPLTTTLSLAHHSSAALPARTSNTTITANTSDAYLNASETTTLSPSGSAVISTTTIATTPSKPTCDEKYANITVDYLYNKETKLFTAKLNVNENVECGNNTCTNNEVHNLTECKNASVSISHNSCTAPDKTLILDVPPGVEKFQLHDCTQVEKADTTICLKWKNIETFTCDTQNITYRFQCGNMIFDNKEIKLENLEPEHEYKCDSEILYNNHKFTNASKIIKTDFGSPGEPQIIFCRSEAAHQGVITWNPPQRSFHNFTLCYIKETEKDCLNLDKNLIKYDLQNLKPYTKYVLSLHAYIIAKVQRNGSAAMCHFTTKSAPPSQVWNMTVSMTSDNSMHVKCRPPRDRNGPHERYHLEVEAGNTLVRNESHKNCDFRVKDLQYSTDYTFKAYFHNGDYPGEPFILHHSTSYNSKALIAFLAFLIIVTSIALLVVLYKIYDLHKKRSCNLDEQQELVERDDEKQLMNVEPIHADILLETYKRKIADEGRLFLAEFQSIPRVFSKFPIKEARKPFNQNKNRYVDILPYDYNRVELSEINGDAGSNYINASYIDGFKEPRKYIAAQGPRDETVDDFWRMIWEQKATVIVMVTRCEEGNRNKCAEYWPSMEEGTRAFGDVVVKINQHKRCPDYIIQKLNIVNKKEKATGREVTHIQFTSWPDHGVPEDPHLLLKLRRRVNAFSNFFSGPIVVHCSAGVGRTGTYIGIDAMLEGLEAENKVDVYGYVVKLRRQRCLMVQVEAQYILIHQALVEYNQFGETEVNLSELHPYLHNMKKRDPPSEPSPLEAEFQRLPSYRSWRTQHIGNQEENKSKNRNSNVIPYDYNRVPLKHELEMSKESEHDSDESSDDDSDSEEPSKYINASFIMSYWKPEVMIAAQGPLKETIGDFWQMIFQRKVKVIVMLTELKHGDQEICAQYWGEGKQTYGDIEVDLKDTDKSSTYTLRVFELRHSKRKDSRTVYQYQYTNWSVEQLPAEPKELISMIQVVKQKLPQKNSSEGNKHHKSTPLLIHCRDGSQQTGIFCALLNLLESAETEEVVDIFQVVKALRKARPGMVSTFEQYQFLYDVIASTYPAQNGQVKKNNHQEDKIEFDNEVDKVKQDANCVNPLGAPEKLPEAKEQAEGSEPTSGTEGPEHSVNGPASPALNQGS

Assays:
[1] = biological target: CD45 (Homo sapiens, UniProt P08575); assay: Enzyme Assay (CD45); conditions: read-out: IC50 (CD45); enzyme from Jurkat cell (JEG-6) membranes, pH 6.0, 90 minutes at 37° C.
[2] = test system: human osteoblastic (TE85) tyrosinephosphate phosphatase; assay: Tyrosylphosphate Phosphatase Enzyme Inhibition Assay (TE85); assay type: biochemical; conditions: read-out: TF85 IC50; enzyme from TE85 cell extract, 32P peptide substrate 0.1 uM, 15 minutes at 37° C.

[N-]=[N+]=Nc1ccc([N+](=O)[O-])cc1C(O)P(=O)(O)O (centres unmarked) showed an IC50 [1] of 7.5 µM and an IC50 [2] of 3 µM.
